Source: PubChem BioAssay AID1259251 (The Scripps Research Institute Molecular Screening Center, 2017)
The entries are a selection whose mix differs from that of the whole data set. Some salts and complexes are drawn in separate pieces, as the source files them; their charges need not balance. Activity calls are given as the source filed them. No stated cut-off is given here; in the data, active means inhibition above about 43%; inactive means the rest.

Amino acid sequences for entries named in this document (tags omitted).
UniProt O75385, whole entry: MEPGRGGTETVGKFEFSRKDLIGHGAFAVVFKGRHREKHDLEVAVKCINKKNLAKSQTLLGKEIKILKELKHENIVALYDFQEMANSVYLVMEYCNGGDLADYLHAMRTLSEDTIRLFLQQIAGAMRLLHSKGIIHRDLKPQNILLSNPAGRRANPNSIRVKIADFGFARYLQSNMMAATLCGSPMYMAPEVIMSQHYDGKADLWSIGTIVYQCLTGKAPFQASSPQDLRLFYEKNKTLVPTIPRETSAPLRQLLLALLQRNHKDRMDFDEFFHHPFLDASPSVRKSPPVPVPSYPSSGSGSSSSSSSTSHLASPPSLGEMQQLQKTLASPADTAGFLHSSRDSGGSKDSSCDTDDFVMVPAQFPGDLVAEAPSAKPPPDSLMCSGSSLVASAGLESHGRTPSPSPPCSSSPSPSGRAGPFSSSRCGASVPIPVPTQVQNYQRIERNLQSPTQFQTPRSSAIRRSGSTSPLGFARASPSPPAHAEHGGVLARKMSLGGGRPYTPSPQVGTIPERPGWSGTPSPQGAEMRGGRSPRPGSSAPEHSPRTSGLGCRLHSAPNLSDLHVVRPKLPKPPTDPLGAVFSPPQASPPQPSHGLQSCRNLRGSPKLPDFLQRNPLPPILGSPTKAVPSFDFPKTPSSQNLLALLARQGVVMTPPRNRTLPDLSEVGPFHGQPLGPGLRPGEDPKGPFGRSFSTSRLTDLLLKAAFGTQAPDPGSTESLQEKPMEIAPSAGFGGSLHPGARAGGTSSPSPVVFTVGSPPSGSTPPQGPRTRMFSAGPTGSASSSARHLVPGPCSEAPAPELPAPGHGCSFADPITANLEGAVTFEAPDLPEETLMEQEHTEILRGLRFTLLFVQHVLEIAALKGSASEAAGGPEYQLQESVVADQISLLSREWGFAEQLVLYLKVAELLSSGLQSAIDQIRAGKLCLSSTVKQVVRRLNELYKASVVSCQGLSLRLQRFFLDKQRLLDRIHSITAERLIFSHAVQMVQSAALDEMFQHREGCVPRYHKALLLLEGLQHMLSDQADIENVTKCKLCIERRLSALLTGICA

Molecular target: Serine/threonine-protein kinase ULK1 (Homo sapiens) (UniProt O75385)
Experiment: inhibition of human autophagy kinase ULK1 – biochemical, AlphaScreen, primary screen (AID 1259251);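 further: 0% = median of compound wells and 100% = no enzyme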
Details: AlphaScreen Atg13 phosphorylation by ULK1, luminescence; at 5.96 µM; hits give high values

Question: For `O=[N+]([O-])c1cc([N+](=O)[O-])c(O)c([N+](=O)[O-])c1`, which inhibition is on record?
Answer: inactive: -7.32%

Question: Which inhibition does the source give for `OCCSCCO` here?
Answer: inactive: -3.84%

Question: How did the inhibition turn out when `CN1CCCC1=C1c2cc([N+](=O)[O-])cc([N+](=O)[O-])c2-c2c1cc([N+](=O)[O-])cc2[N+](=O)[O-]` was run?
Answer: inactive: 18.7%

Question: How did the inhibition turn out when `C/C1=C2N=C(/C=C3N=C(/C(C)=C4\[N-][C@@](C)([C@@H]5N=C1[C@](C)(CCC(=O)NC[C@@H](C)OP(=O)(O)O[C@H]1[C@@H](O)[C@@H](n6cnc7cc(C)c(C)cc76)O[C@@H]1CO)[C@H]5CC(N)=O)[C@@](C)(CC(N)=O)[C@@H]4CCC(N)=O)[C@@](C)(CC(N)=O)[C@@H]\3CCC(N)=O)C(C)(C)[C@@H]/2CCC(N)=O.[C-]#N.[Co+3]` was run?
Answer: inactive: 33.2%

Question: How did the inhibition turn out when `O=[N+]([O-])c1cnc(Nc2c([N+](=O)[O-])cc([N+](=O)[O-])cc2[N+](=O)[O-])c([N+](=O)[O-])c1` was run?
Answer: inactive: 4.8%
